This test relates to INS-1E rat beta cells, no cytokines, CellTiter-Glo ATP, 48 h. In words: cytokine-free beta-cell viability effect – INS-1E rat cells, ATP luminescence, cherry pick, counter-screen for beta-cell apoptosis protection project, dose response (AID 463229). A general note: Counterscreens check selectivity or assay interference.

The structures appear in SMILES notation.

As to `CC[n+]1c(/C=C/N(C)c2ccccc2)oc2ccccc21`, the AC50 (commonly the concentration giving half of the maximal activity seen) was 893 nM.

Values taken from PubChem BioAssay AID463229 (Broad Institute, 2010).
